Test results taken from ChEMBL document CHEMBL1268880, “Investigation of 4-piperidinols as novel H3 antagonists” (Bioorg Med Chem Lett, 2010).

The chains behind the UniProt entries cited, without tags or fusion partners. Where a name states a change or a piece, a line headed by the entry shows the natural chain unless it says otherwise.
UniProt Q9Y5N1: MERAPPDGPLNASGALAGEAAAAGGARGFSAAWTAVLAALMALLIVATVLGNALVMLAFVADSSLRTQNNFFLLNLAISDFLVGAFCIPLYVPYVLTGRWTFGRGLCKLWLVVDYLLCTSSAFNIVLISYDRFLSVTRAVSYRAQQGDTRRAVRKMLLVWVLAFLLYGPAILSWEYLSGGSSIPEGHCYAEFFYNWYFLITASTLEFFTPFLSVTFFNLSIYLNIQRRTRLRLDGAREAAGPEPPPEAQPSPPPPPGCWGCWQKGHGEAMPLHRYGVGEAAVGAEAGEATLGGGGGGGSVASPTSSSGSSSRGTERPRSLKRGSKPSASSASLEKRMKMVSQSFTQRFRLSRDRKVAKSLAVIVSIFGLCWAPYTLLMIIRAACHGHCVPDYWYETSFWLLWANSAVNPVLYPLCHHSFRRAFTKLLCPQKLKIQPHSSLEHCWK

Biological target: Histamine H3 receptor (Homo sapiens, UniProt Q9Y5N1)
Assay: Antagonist activity against human histamine H3 receptor expressed in human HT1080 cells assessed as inhibition of (R)-alpha-methylhistamine-induced increase in intracellular calcium level by FLIPR assay
Assay type: functional, cell-based, HT-1080

## NC(=NCc1ccc(Cl)cc1)SCCCc1cnc[nH]1 [CLOBENPROPIT]
  IC50: 1 nM
